We go through 1 compound from patent US20090143392A1, “Methods of Treating Obesity and Metabolic Disorders” (ELBION GMBH, priority 2007, published 2009).

Sequences of proteins named here, by UniProt entry; tags and fusion partners are left off. Residues count along the entry.
UniProt A0A287B941, 1-1069: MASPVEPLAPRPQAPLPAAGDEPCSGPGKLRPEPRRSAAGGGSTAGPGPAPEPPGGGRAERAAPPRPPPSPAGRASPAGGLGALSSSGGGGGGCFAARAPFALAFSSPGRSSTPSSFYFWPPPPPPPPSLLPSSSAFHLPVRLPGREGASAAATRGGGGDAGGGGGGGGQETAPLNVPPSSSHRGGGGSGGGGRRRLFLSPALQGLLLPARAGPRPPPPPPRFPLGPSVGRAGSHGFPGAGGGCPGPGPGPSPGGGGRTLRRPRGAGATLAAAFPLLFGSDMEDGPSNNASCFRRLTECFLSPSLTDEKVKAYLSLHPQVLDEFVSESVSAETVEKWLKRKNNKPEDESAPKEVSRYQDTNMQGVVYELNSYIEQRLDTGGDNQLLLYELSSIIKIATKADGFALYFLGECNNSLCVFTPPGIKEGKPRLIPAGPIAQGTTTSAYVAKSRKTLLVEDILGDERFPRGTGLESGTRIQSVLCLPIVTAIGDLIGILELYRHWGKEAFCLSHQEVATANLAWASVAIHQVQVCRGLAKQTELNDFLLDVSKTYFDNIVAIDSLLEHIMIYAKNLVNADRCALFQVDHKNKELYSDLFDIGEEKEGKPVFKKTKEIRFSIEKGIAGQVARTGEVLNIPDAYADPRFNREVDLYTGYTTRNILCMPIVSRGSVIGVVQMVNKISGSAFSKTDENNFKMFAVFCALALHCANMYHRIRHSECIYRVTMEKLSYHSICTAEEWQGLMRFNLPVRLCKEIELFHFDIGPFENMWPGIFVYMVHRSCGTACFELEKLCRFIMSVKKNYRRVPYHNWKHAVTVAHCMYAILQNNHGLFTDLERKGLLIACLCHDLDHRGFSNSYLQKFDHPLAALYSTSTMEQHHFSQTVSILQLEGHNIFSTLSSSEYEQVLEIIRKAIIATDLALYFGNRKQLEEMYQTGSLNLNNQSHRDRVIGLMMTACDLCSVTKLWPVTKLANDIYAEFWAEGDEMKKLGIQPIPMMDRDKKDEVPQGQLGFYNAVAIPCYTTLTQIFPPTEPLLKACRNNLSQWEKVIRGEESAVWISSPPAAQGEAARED
UniProt Q9QYJ6, whole entry: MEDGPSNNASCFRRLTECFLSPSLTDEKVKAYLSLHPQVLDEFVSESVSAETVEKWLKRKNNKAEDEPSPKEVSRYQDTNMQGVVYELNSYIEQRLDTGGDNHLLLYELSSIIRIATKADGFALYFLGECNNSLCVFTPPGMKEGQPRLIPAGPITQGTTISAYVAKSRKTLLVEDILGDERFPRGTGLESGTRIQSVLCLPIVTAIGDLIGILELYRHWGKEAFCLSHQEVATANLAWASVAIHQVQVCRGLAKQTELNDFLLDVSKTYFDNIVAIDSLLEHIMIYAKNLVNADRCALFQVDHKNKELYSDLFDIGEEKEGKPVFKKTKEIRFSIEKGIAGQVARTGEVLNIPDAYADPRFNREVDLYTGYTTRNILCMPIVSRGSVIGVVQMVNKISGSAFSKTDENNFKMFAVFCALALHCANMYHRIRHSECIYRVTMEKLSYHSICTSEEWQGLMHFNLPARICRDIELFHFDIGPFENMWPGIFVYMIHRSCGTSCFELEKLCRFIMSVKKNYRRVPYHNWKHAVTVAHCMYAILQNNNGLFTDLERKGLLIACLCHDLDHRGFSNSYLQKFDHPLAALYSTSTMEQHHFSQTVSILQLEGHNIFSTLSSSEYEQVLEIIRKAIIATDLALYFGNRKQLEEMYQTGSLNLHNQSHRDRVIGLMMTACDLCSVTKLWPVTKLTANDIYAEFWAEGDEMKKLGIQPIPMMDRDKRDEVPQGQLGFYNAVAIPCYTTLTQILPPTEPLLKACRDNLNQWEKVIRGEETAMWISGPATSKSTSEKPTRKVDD

Broadly, the IC50 is the concentration that gives 50% inhibition.

The target in experiment [1] is PDE10 from pig striatum (Sus scrofa, UniProt A0A287B941). Kind of experiment: Inhibition of PDE10 from pig striatum. The format is biochemical. The conditions noted are these: read-out: Inhibition of PDE10 from pig IC50, 0.1 μM [3H]-cAMP, 37° C., 30 minutes.
Experiment [2] concerns the target PDE10 from rat striatum (Rattus norvegicus, UniProt Q9QYJ6). In words: Inhibition of PDE10 from rat striatum. Particulars: read-out: Inhibition of PDE10 from rat IC50, 0.1 μM [3H]-cAMP, 37° C., 30 minutes. The format is biochemical.

Consider `CCc1nc(C)c2c(Cl)nc3ccc(OC)nc3n12`, for which the IC50 in experiment [1] came to 17 nM; in experiment [2] it was 23 nM.
